# Source: ChEMBL document CHEMBL4368891, “Conformationally restricted quinazolone derivatives as PI3Kδ-selective inhibitors: the design, synthesis and biological evaluation” (Medchemcomm, 2019)
# Conditions: human, microsomes
compound,measurement,value
O=C(O)Cc1ccccc1Nc1c(Cl)cccc1Cl [DICLOFENAC],CLH,0.1299 mL/min/kg
